Results taken from US7390834B2, “Cyanophenoxy carboxylic acid compounds and compositions for delivering active agents” (Emisphere Technologies, Inc., priority 2000, dated 2008).

Experiments:
[1] = Oral delivery of rhGH in rats (serum rhGH immunoassay); conditions: oral gavage, compound 200 mg/kg, rhGH 3 mg/kg, volume 1 ml/kg
[2] = Oral delivery of human insulin in rats (serum insulin ELISA); conditions: no delivery agent, previous experiments
Procedure: Oral dosing (PO) compositions of delivery agent compound and human zinc insulin (minimum 26 IU/mg available from Calbiochem—Novabiochem Corp, La Jolla, Calif.) were prepared in deionized water. […] The solution was vortexed, then heated (about 37° C.) and sonicated. The pH was adjusted to about 7 to 8.5 with NaOH or HCl.
The typical dosing and sampling protocols were as follows. […] A dosing group of five animals was administered one of the dosing solutions. […] The dosing solution was administered by pressing the syringe plunger.
Serum insulin levels were determined with an Insulin ELISA Test Kit (Kit # DSL-10-1600 from Diagnostic Systems Laboratories, Inc., Webster, Tex.), modifying the standard protocol in order to optimize the sensitivity and linear range of the standard curve for the volumes and concentrations of the samples used in the present protocol. […] The five values for each time point were averaged and the results plotted as serum insulin concentration versus time.

Peak Serum [rhGH] (ng/ml) ± SD (SE) [1] | Substance | levels of human insulin following oral dosing with human insulin alone [2]
0 ng/mL | 3-(2-cyanophenoxy) acetic acid [Compound 1] | –
– | human insulin | no measurable levels
